Our source for the IC50 values is patent EP0698613B1, “Endothelin-antagonizing peptide” (KYOWA HAKKO KOGYO CO., Ltd., priority 1994, dated 1996).

By UniProt entry, the sequences of proteins in these tests, tags left out. Residues count along the entry.
UniProt P21450, 21-427: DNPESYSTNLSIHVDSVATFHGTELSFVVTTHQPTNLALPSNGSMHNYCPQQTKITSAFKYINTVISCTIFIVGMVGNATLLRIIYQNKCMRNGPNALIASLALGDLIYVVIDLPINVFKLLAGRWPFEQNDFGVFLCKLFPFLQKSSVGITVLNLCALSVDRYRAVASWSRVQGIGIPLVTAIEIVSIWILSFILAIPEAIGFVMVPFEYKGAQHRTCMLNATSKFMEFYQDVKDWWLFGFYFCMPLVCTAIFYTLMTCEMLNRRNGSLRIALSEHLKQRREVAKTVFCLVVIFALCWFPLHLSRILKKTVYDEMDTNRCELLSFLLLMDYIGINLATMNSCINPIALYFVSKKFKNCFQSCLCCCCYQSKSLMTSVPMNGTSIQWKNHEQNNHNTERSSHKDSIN

The structures appear in SMILES notation.

One may read the IC50 as the point on the concentration scale where inhibition reaches its midpoint. High values mean weaker potency, low ones greater potency.

Assay [1] concerns the target endothelin receptor (Bos taurus, UniProt P21450). Nature of the assay: biochemical. On the procedure: (§1) The resulting solid substance was prepared as a suspension containing 2 mg/ml of protein, and the suspension was used as a membrane fraction liquid.
Assay [2] concerns the target T1, endothelin receptor (Bos taurus, UniProt P28088).
T1 construct: the suspension was used as a membrane fraction liquid; from tissue; host or cells: bovine cerebellum membrane fraction
T1 sequence (P28088 27-441): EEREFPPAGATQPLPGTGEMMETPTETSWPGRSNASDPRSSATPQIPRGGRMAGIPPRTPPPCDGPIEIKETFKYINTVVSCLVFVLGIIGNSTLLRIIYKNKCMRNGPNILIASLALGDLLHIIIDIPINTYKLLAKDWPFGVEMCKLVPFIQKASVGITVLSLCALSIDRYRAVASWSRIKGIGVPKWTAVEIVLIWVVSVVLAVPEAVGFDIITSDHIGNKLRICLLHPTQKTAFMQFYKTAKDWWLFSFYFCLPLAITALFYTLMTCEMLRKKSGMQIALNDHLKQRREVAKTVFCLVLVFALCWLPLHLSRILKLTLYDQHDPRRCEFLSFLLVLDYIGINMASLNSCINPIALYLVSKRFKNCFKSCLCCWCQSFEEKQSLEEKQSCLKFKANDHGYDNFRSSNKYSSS
Nature of the assay: biochemical. In kind it is binding, Bovine. As for the experimental part:
as §1

Take `C[C@@H]1NC(=O)[C@H]([C@@H](C)O)NC(=O)CNC(=O)[C@H](Cc2c[nH]cn2)NC(=O)[C@H](Cc2c[nH]c3ccccc23)NC(=O)[C@H](CC(N)=O)NC(=O)CNC(=O)C[C@@H](C(=O)N[C@@H](Cc2c[nH]c3ccccc23)C(=O)N[C@@H](Cc2ccccc2)C(=O)N[C@@H](Cc2ccccc2)C(=O)N[C@@H](CC(N)=O)C(=O)N[C@@H](Cc2ccc(O)cc2)C(=O)N[C@@H](Cc2ccc(O)cc2)C(=O)NCCc2c[nH]c3ccccc23)NC(=O)[C@@H]2CCCN2C1=O` [(I-1)]: the IC50 on endothelin receptor [1] was found to be 300 nM; at endothelin receptor [2], 50 nM.
